Measured values reported in ChEMBL document CHEMBL1134096, “Discovery and characterization of the potent, selective and orally bioavailable MMP inhibitor ABT-770” (Bioorg Med Chem Lett, 2001).

Target: T1, Interstitial collagenase (Homo sapiens, UniProt P03956)
T1 sequence (P03956 whole entry): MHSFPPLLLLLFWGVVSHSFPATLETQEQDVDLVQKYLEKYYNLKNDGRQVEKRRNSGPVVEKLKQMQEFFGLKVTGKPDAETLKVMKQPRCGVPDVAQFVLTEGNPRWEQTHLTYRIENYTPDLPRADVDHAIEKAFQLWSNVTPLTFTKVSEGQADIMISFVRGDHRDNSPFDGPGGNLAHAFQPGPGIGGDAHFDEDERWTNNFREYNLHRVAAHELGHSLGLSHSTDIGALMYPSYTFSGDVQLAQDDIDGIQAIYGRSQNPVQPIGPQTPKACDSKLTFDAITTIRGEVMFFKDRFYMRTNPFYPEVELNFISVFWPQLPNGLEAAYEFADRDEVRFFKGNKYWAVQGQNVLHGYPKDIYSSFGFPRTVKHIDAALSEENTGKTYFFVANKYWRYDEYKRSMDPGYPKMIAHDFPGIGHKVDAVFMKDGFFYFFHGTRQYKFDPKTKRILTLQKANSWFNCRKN
Experiment: In vitro inhibition of human Matrix metalloprotease-1.

IC50: 440 nM
SMILES: COc1ccc(-c2ccc(OCC(CN3C(=O)N(C)C(C)(C)C3=O)N(O)C=O)cc2)cc1 (stereo unspecified)
